We go through two molecules from ChEMBL document CHEMBL1127274, “Evaluation of (2S,4S)/(2R,4R) and (2S,4R)/(2R,4S) 6,6-N,N-dimethyl-2-methyl-2-oxo-1,3-dioxa-4-hexadecyl-6,aza-2-phosphacyclooctane bromide as inhibitors for protein kinase C, carnitine octanoyltransferase, and carnitine palmitoyltransferase” (Bioorg Med Chem Lett, 1994).

Molecules are shown by their SMILES.

The test is described as follows: Inhibition of mouse Protein Kinase C alpha and beta-2.

In general, IC50 refers to the point on the concentration scale where inhibition reaches its midpoint. Higher therefore signals weaker potency.

`CCCCCCCCCCCCCCCCC1C[N+](C)(C)CCO[P@@](C)(=O)O1` (some centres not stated) returned an IC50 of 9.9 µM.

The molecule `CCCCCCCCCCCCCCCCC1C[N+](C)(C)CCO[P@](C)(=O)O1` (some centres not stated) showed an IC50 of 4.8 µM.
